Source: ChEMBL document CHEMBL1133656, “Structural determinants of efficacy for kappa opioid receptors in the orvinol series: 7,7-spiro analogues of buprenorphine” (2000)

Protein sequences, listed by entry. Tags and fused reporters are not part of them.
UniProt P35372, whole entry: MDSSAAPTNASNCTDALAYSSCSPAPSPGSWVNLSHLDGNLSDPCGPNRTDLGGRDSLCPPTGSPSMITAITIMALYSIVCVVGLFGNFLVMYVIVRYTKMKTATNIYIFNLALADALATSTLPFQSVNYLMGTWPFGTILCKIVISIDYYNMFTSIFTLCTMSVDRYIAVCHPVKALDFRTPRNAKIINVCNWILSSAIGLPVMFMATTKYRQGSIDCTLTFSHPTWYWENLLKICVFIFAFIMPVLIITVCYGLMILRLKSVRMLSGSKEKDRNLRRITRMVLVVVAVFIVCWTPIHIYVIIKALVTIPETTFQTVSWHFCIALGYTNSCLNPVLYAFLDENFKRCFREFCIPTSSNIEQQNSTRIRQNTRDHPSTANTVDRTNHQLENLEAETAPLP
UniProt P41143, whole entry: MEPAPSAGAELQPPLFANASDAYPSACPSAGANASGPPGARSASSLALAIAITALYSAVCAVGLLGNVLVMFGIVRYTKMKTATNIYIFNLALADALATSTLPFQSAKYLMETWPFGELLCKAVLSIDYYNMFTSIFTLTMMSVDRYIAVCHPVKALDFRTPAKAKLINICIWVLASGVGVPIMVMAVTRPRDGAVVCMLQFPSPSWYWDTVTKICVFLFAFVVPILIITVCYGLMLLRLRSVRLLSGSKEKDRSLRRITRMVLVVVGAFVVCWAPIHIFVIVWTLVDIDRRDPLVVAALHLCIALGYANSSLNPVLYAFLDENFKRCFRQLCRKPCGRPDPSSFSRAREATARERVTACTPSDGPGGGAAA
UniProt P41145, whole entry: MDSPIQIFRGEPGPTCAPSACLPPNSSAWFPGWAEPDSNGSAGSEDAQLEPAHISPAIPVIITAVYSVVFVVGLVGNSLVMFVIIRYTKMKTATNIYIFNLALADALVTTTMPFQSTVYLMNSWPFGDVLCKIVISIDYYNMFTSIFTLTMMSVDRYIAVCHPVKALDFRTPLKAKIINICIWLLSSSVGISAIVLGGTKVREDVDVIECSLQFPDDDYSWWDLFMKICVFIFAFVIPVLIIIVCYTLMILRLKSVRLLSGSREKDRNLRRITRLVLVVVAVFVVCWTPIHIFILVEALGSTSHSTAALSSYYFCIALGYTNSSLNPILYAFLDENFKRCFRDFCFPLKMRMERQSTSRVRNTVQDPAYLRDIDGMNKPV

Key:
[1] = biological target: Mu-type opioid receptor (Homo sapiens) (UniProt P35372); test: % stimulation of GTPgammaS binding in cloned human Opioid receptor mu 1 transfected into hamster ovary cells with respect to DAMGO.
[2] = biological target: Delta-type opioid receptor (Homo sapiens) (UniProt P41143); test: % stimulation of GTPgammaS binding in cloned human Opioid receptor delta 1 transfected into hamster ovary cells with respect to DPDPE
[3] = biological target: Kappa-type opioid receptor (Homo sapiens) (UniProt P41145); test: % stimulation of GTPgammaS binding in cloned human Opioid receptor kappa 1 transfected into hamster ovary cells with respect to U-69,593.

Which Stimulation [1] does the source give for `CO[C@]12C=CC3(CC14CCC[C@H]4O)C1Cc4ccc(O)c5c4C3(CCN1CC1CC1)[C@@H]2O5` (stereo not given in full) here?
The Stimulation was 32%.

What about the Stimulation [2] of the same molecule?
The Stimulation was 104%.

What about the Stimulation [3] of the same molecule?
Its Stimulation is 89%.

Which Stimulation [1] does the source give for `CO[C@]12C=CC3(CC14CCC(C)(C)[C@H]4O)C1Cc4ccc(O)c5c4C3(CCN1CC1CC1)[C@@H]2O5` (stereo not given in full) here?
Its Stimulation is 21%.

What about the Stimulation [2] of the same molecule?
The Stimulation was 45.5%.

And the Stimulation [3]?
Its Stimulation is 40%.

Which results are given for `CO[C@]12C=CC3(CC14CCC(C)(C)[C@H]4O)C1Cc4ccc(O)c5c4C3(CCN1C)[C@@H]2O5` (stereo not given in full)?
Stimulation [2]: 100%; Stimulation [3]: 21%

For `CO[C@]12C=CC3(CC14CCC[C@H]4O)C1Cc4ccc(O)c5c4C3(CCN1C)[C@@H]2O5` (stereo not given in full), which Stimulation [2] is on record?
Its Stimulation is 111%.

What about the Stimulation [3] of the same molecule?
The Stimulation was 88%.
